## Antibody variant affinities, Ab-14 heavy chain, assay 1

Reference: Engelhart et al. 2022, doi:10.1038/s41597-022-01779-4. File: FLAb, binding data.

The target is the same throughout: PDVDLGDISGINAS, from the HR2 region of SARS-CoV-2 spike.

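Library AAYL49 holds single substitutions and randomly drawn double and triple substitutions in the CDRs. The scFvs were displayed on barcoded MATa yeast, the peptide on MATalpha yeast. After mating in shaken culture at 30 °C for 16 h, diploids were selected and their barcode pairs sequenced. Read counts were normalised to the haploid input and turned into Kd by a linear fit to BCL2-family pairs of known affinity, for each replicate. There are three technical replicates.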

Ab-14 is the parent antibody, in scFv form: VH, then three GGGGS repeats, then VL. The light chain is unchanged in all variants.
VH: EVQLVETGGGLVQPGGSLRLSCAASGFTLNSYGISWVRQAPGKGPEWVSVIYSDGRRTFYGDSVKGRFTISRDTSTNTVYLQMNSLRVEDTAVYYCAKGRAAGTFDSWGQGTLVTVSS
VL: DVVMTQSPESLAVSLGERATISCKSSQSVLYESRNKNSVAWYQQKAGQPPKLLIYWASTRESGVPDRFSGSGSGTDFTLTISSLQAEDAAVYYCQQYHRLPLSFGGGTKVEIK

Substitutions are numbered in sequence along the VH above, starting at 1 (not Kabat).
Scale: log10 of Kd in nM, estimated from mating counts; low values are strong binders.
An entry "nd" has no value in the source: the pair was not observed among the diploids in that replicate. This suggests poor binding but is not conclusive.
For reference, the parent read 0.65 as the reference entry and 4.11 (one replicate of three) as a member of this library.
Background: pairings of library AAYL49 with three empty control strains gave a value in 15% of cases (median 4.06, 5th percentile 2.83). Values in that range, when seen in few replicates, are hard to tell from nonspecific mating. Also given: how often the same scFv was detected with the empty control strains, with their mean in brackets.

| # | changes | log10 Kd, replicates | empty controls |
|---|---|---|---|
| 1 | S31K+G61D+D106N | nd / nd / nd | 0 of 9 |
| 2 | S53E+G99W+A101C | 4.94 / nd / nd | 5 of 9 (4.37) |
| 3 | G26W+G55W+T104C | nd / 4.66 / 3.81 | 2 of 9 (3.61) |
| 4 | V64I+K65C+A102D | nd / nd / 4.40 | 3 of 9 (4.12) |
| 5 | T28E+V50M+D54V | 3.70 / nd / nd | 5 of 9 (4.41) |
| 6 | G26A+Y52E | nd / nd / nd | 1 of 9 (4.59) |
| 7 | Y32G+K65Y+S107W | nd / nd / nd | 0 of 9 |
| 8 | D54Q+T104E+D106V | nd / 3.75 / 4.59 | 1 of 9 (4.24) |
| 9 | S35V+D106P | nd / 4.66 / nd | 2 of 9 (3.73) |
| 10 | T28E+K65Y+A101W | 1.10 / 1.54 / 1.23 | 0 of 9 |
| 11 | N30T+D54A | nd / nd / nd | 0 of 9 |
| 12 | G55L+Y60H+D106G | nd / nd / nd | 0 of 9 |
| 13 | Y32W+Y60F+A101M | 4.06 / nd / 3.10 | 3 of 9 (4.06) |
| 14 | N30G+G103Y | nd / nd / 3.27 | 0 of 9 |
| 15 | T28C+Y52M+R57G | 5.02 / 4.40 / 3.97 | 4 of 9 (4.98) |
| 16 | S53P+Y60I | 3.01 / nd / nd | 0 of 9 |
| 17 | F27Y+Y52V+S107K | nd / nd / nd | 0 of 9 |
| 18 | S53H+R57F+K65N | nd / nd / nd | 0 of 9 |
| 19 | F27R+T28Q+D54Q | nd / nd / nd | 0 of 9 |
| 20 | F59A+S107I | 1.57 / 1.52 / 1.95 | 0 of 9 |
| 21 | I51M+V64M+F105E | nd / nd / 3.19 | 0 of 9 |
| 22 | G33M+K65W+T104H | nd / nd / nd | 0 of 9 |
| 23 | Y32H+Y60H+G61A | nd / 4.01 / nd | 0 of 9 |
| 24 | Y32T | 3.12 / 2.84 / 4.10 | 3 of 9 (4.23) |
| 25 | F27T+R56I+T58G | nd / nd / nd | 1 of 9 (3.57) |
| 26 | N30Y+V64K+A102Q | nd / nd / nd | 1 of 9 (3.41) |
| 27 | K65H+R100A+T104Q | 2.45 / 2.62 / 2.66 | 1 of 9 (4.55) |
| 28 | F27C+G33I+S63L | nd / nd / nd | 0 of 9 |
| 29 | T28A+D54A+K65F | nd / nd / nd | 0 of 9 |
| 30 | D54F+R57Y+G103E | 5.71 / nd / nd | 0 of 9 |
| 31 | Y32V+D62Q+D106L | nd / 3.95 / 5.78 | 1 of 9 (3.35) |
| 32 | N30S+Y32S+S53F | nd / nd / nd | 2 of 9 (3.83) |
| 33 | F27N+Y32N+I34D | 5.06 / nd / nd | 0 of 9 |
| 34 | L29V+K65A+S107W | nd / nd / nd | 0 of 9 |
| 35 | V64E+K65V+R100P | nd / nd / nd | 1 of 9 (4.20) |
| 36 | F27W+V64L+A101K | nd / nd / nd | 0 of 9 |
| 37 | T28G+A102T+S107A | nd / 3.48 / nd | 1 of 9 (5.34) |
| 38 | T58Y+V64R+R100D | nd / nd / nd | 0 of 9 |
| 39 | S35W+Y52L | nd / nd / nd | 1 of 9 (1.13) |
| 40 | G61F+G99T | nd / nd / nd | 0 of 9 |
| 41 | R57D+D62K | nd / nd / nd | 1 of 9 (3.95) |
| 42 | G55T+T58C+F105K | nd / nd / nd | 1 of 9 (4.25) |
| 43 | I34L+Y52A+T58W | nd / nd / 6.51 | 2 of 9 (4.45) |
| 44 | L29K+F59S+G99K | nd / nd / 3.47 | 1 of 9 (4.04) |

For reference, 4 entries of the list once more:

changes,"log10 Kd, replicates",empty controls
F27Y+Y52V+S107K,nd / nd / nd,0 of 9
G26W+G55W+T104C,nd / 4.66 / 3.81,2 of 9 (3.61)
S53E+G99W+A101C,4.94 / nd / nd,5 of 9 (4.37)
N30G+G103Y,nd / nd / 3.27,0 of 9